Patent US20190339279A1, “DETECTING NITROAROMATIC COMPOUNDS WITH PYRENE-LABELED STARCH NANOPARTICLES” (published 2019)
≈ marks a conversion by molar mass, not a printed value. Some compounds may have been tested in ways that are not shown here.

Legend:
[1] = in water; cited from earlier work
[2] = Quenching studies of Py-SNPs in DMSO (time-resolved fluorescence, Stern-Volmer); settings: from slope of τ0/τ vs quencher concentration
Excerpt: Typically, Stern-Volmer plots are used to determine the bimolecular quenching rate constant kq. This parameter can be obtained from a Stern Volmer plot, namely a plot of the ratios F0/F or τ0/τ as a function of quencher concentration. In the absence of static quenching, both the F0/F and τ0/τ ratio should increase linearly with quencher concentration. From our experimental results, we find good agreement between the F0/F and τ0/τ ratios, and the slight discrepancy observed is most likely due to residual static quenching. It should be noted that the slopes from the τ0/τ ratios, which are unaffected by static quenching or re-absorption, were used to determine all kq values. Time-Resolved Fluorescence: All time-resolved fluorescence decays were acquired on an IBH fluorimeter equipped with an IBH 340 nm NanoLED. All solutions were excited at 346 nm and the fluorescence decays for the Py-SNPs were acquired at 375 and 510 nm for the monomer and excimer, respectively. To ensure a good signal-to-noise ratio, the fluorescence decays were acquired with 20,000 counts at the decay maximum. All decays were fitted with a sum of exponentials. […] The stock solution (3.7 g) was diluted with 1.3 g of DMSO to yield the solution “Sol A” with a pyrene concentration of 2.5·10^−6 M, corresponding to an absorbance of 0.1. […]

Structure (SMILES)	water solubility [1] [µg/mL]	bimolecular quenching rate constant kq [2]
Cc1c([N+](=O)[O-])cc([N+](=O)[O-])cc1[N+](=O)[O-]	127 (≈ 559 µM)	–
Cc1c([N+](=O)[O-])cccc1[N+](=O)[O-]	279 (≈ 1530 µM)	2.2 (±0.2) M^−1 ns^−1
